Patent US4122199A, “Amides of pyrrolidinoethylamine which can be used in treatment of coughs” (Pierre Fabre S.A., priority 1976, dated 1978)

Tested on: mice
Type: in vivo
Conditions: isotonic aqueous solution, hydrochloride
Experimental: It is determined on mice, the products being administered orally, intraperitoneally, and intraveneously in isotonic aqueous solution.

O=C(NCCN1CCCC1)C(c1ccccc1)c1ccccc1 [F 1459, N(2'-pyrrolidino-ethyl)-α,α-diphenyl acetamide hydrochloride]
DL 50 intraperitoneal: 178 mg/kg

Structures can show the parent of a compound that is named as a salt.
